The record followed here is patent US9980973B2, “Bicyclic heterocycle compounds and their uses in therapy” (ASTEX THERAPEUTICS LIMITED, priority 2012, dated 2018).

Sequences of proteins named here, by UniProt entry; tags and fusion partners are left off. Residues count along the entry.
UniProt Q13490, 267-363: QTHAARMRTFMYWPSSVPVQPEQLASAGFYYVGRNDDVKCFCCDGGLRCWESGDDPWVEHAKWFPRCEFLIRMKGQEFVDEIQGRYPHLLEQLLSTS
UniProt P98170, 252-350: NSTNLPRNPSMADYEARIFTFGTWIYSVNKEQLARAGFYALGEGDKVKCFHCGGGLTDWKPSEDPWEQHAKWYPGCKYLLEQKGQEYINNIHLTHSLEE

Counter-ions that a name gives are not always drawn. Like-named read-outs stand apart in the source and are kept apart here.

For experiment [1], the target named is T1, BIR3 domain of human cIAP-1 (Homo sapiens, UniProt Q13490).
T1 construct: human cIAP-1 (residues 267-363) fused to a GST-tag; GST-tag (cleaved yes); made in house; host or cells: Escherichia coli
The experiment is described as follows: cIAP-1 in vitro competitive displacement binding assay (fluorescence polarization). The conditions noted are these: for inhibition at 0.012 µM: 3 h.

For experiment [2], the target named is T2, BIR3 domain of human XIAP (Homo sapiens, UniProt P98170).
T2 construct: BIR3 domain of human XIAP (residues 252-350) fused to a His-tag; His-tag (cleaved yes); made in house; host or cells: Escherichia coli
As to the kind of experiment: XIAP in vitro competitive displacement binding assay (fluorescence polarization). The conditions noted are these: for inhibition at 0.12 µM / inhibition at 0.04 µM: 1 h.

The mark [3] stands for this setting: PI at 0.012 μM, read-out: cIAP1 IC50 or PI μM (PI).
Setting [4] is: read-out: cIAP1 IC50 or PI μM (PI), PI at 0.012 μM.
[5] abbreviates: PI at 0.04 μM, read-out: Xiap IC50 or PI μM (PI).
[6] abbreviates: read-out: Xiap IC50 or PI μM (PI), PI at 0.04 μM.

Take `C[C@@H]1CN(CC(=O)N2CC(C)(C)c3ncc(Cc4ccc(F)cc4)cc32)[C@@H](CN2CCn3cnnc3C2)CN1` [Example 71, 1-{6-[(4-Fluorophenyl)methyl]-3,3-dimethyl-1H,2H,3H-pyrrolo[3,2-b]pyridin-1-yl}-2-[(2R,5R)-5-methyl-2-{5H, 6H, 7H, 8H-[1,2,4]triazolo[4,3-a]pyrazin-7-ylmethyl}piperazin-1-yl]ethan-1-one dihydrochloride]: the inhibition at 0.012 µM in experiment [1] (setting [3]) is 97%.
As for `C[C@@H]1CN(CC(=O)N2CC(C)(C)c3ncc(Cc4ccc(F)cc4)cc32)[C@@H](CN2CC3CCC(C2)O3)CN1` [Example 18, 1-{6-[(4-Fluorophenyl)methyl]-3,3-dimethyl-1H,2H,3H-pyrrolo[3,2-b]pyridin-1-yl}-2-[(2R,5R)-5-methyl-2-{8-oxa-3-azabicyclo[3.2.1]octan-3-ylmethyl}piperazin-1-yl]ethan-1-one dihydrochloride], in experiment [1] (setting [3]), the inhibition at 0.012 µM was found to be 97%.
The same measure, in the same setting: then `C[C@@H]1CN(CC(=O)N2CC(C)(C)c3ncc(Cc4ccc(F)cc4)cc32)[C@@H](CN2CCCC(F)(F)C2)CN1` [Example 3, 2-[(2R,5R)-2-[(3,3-Difluoropiperidin-1-yl)methyl]-5-methylpiperazin-1-yl]-1-{6-[(4-fluorophenyl)methyl]-3,3-dimethyl-1H,2H,3H-pyrrolo[3,2-b]pyridin-1-yl}ethan-1-one dihydrochloride], with 98%; and `C[C@@H]1CN(CC(=O)N2CC(C)(C)c3ncc(Cc4ccc(F)cc4)cc32)[C@@H](CN2CCC[C@H]2CF)CN1` [Example 30, 2-[(2R,5R)-2-{[(2S)-2-(Fluoromethyl)pyrrolidin-1-yl]methyl}-5-methylpiperazin-1-yl]-1-{6-[(4-fluorophenyl)methyl]-3,3-dimethyl-1H,2H,3H-pyrrolo[3,2-b]pyridin-1-yl}ethan-1-one dihydrochloride], with 97%.
Regarding `C[C@@H]1CN(CC(=O)N2CC(C)(C)c3ncc(Cc4ccc(F)cc4)cc32)[C@@H](CN2CCC(F)(F)C2)CN1` [Example 6, 2-[(2R,5R)-2-[(3,3-Difluoropyrrolidin-1-yl)methyl]-5-methylpiperazin-1-yl]-1-{6-[(4-fluorophenyl)methyl]-3,3-dimethyl-1H,2H,3H-pyrrolo[3,2-b]pyridin-1-yl}ethan-1-one dihydrochloride], the inhibition at 0.12 µM in experiment [2] (PI at 0.12 μM, read-out: Xiap IC50 or PI μM (PI)) is 52%.
For `C[C@@H]1CN(CC(=O)N2CC(C)(C)c3ncc(Cc4ccc(F)cc4)cc32)[C@@H](CN2C3CCC2COC3)CN1` [Example 17, 1-{6-[(4-Fluorophenyl)methyl]-3,3-dimethyl-1H,2H,3H-pyrrolo[3,2-b]pyridin-1-yl}-2-[(2R,5R)-5-methyl-2-{3-oxa-8-azabicyclo[3.2.1]octan-8-ylmethyl}piperazin-1-yl]ethan-1-one dihydrochloride], the inhibition at 0.012 µM in experiment [1] (setting [3]) came to 98%.
Consider `C[C@@H]1CN(CC(=O)N2CC(C)(C)c3ncc(C(O)c4ccc(F)c(F)c4)cc32)[C@@H](CN2[C@H](C)COC[C@H]2C)CN1` (single isomer, unassigned) [Example 110, (R or S)-1-{6-[(3,4-Difluorophenyl)(hydroxy)meth-yl]-3,3-dimethyl-1H,2H,3H-pyrrolo[3,2-b]pyridin-1-yl}-2-[(2R,5R)-2-{[(3R,5R)-3,5-dimethylmorpholin-4-yl]methyl}-5-methylpiperazin-1-yl]ethan-1-one dihydrochloride], for which the “Xiap IC50 or PI μM (PI)” value in experiment [2] (PI at 0.04 μM, 60 min, dihydrochloride, 0.04 µM) turned out to be 39%@0.04. Moreover, the “cIAP1 IC50 or PI μM (PI)” value in experiment [1] (PI at 0.012 μM, 180 min, dihydrochloride, 0.012 µM) is recorded as 99%@0.012.
For `CC(C)[C@@H]1COCCN1C[C@H]1CN[C@H](C)CN1CC(=O)N1CC(C)(C)c2ncc(Cc3ccc(F)cc3)cc21` [Example 13, 1-{6-[(4-Fluorophenyl)methyl]-3,3-dimethyl-1H,2H,3H-pyrrolo[3,2-b]pyridin-1-yl)-2-[(2R,5R)-5-methyl-2-{[(3R)-3-(propan-2-yl)morpholin-4-yl]methyl}piperazin-1-yl]ethan-1-one dihydrochloride], the inhibition at 0.12 µM in experiment [2] (read-out: Xiap IC50 or PI μM (PI), PI at 0.12 μM) was determined as 59%. In experiment [1] (setting [4]), the inhibition at 0.012 µM worked out at 98%.
For the compound `C[C@@H]1CN(CC(=O)N2CC(C)(C)c3ncc(Cc4ccc(F)cc4)cc32)[C@@H](CN2CCOCC2(C)C)CN1` [Example 5, 2-[(2R,5R)-2-[(3,3-Dimethylmorpholin-4-yl)methyl]-5-methylpiperazin-1-yl]-1-{6-[(4-fluorophenyl)methyl]-3,3-dimethyl-1H,2H,3H-pyrrolo[3,2-b]pyridin-1-yl}ethan-1-one dihydrochloride], the inhibition at 0.04 µM in experiment [2] (setting [5]) turned out to be 41%. In experiment [1] (setting [3]), the inhibition at 0.012 µM worked out at 98%.
Turning to `CC1CC(=O)CCN1C[C@H]1CN[C@H](C)CN1CC(=O)N1CC(C)(C)c2ncc(Cc3ccc(F)cc3)cc21` (stereo partly drawn) [Example 8, 1-{[(2R,5R)-1-(2-{6-[(4-Fluorophenyl)methyl]-3,3-dimethyl-1H,2H,3H-pyrrolo[3,2-b]pyridin-1-yl}-2-oxoethyl)-5-methylpiperazin-2-yl]methyl}-2-methylpiperidin-4-one dihydrochloride], the inhibition at 0.012 µM in experiment [1] (setting [3]) was determined as 93%.
As for `C[C@@H]1CN(CC(=O)N2CC(C)(C)c3ncc(Cc4ccc(F)cc4)cc32)[C@@H](CN2CC3CC2CO3)CN1` (stereo partly drawn) [Example 20, 1-{6-[(4-Fluorophenyl)methyl]-3,3-dimethyl-1H,2H,3H-pyrrolo[3,2-b]pyridin-1-yl}-2-[(2R,5R)-5-methyl-2-{2-oxa-5-azabicyclo[2.2.1]heptan-5-ylmethyl}piperazin-1-yl]ethan-1-one dihydrochloride], the inhibition at 0.012 µM in experiment [1] (setting [4]) was 90%.
For the compound `C[C@@H]1CN(CC(=O)N2CC(C)(C)c3ncc(Cc4ccc(F)cc4)cc32)[C@@H](CN2C[C@@H]3C[C@H]2CO3)CN1` [Example 7, 1-{6-[(4-Fluorophenyl)methyl]-3,3-dimethyl-1H,2H,3H-pyrrolo[3,2-b]pyridin-1-yl}-2-[(2R,5R)-5-methyl-2-[(1S,4S)-2-oxa-5-azabicyclo[2.2.1]heptan-5-ylmethyl]piperazin-1-yl]ethan-1-one dihydrochloride], the inhibition at 0.012 µM in experiment [1] (setting [4]) was found to be 80%.
Take `C[C@@H]1CN(CC(=O)N2CC(C)(C)c3ncc(Cc4ccc(F)cc4)cc32)[C@@H](CN2CCOCC23CC3)CN1` [Example 10, 1-{6-[(4-Fluorophenyl)methyl]-3,3-dimethyl-1H,2H,3H-pyrrolo[3,2-b]pyridin-1-yl}-2-[(2R,5R)-5-methyl-2-{7-oxa-4-azaspiro[2.5]octan-4-ylmethyl}piperazin-1-yl]ethan-1-one dihydrochloride]: in experiment [2] (setting [6]), the inhibition at 0.04 µM stood at 41%. Besides, in experiment [1] (setting [4]), the inhibition at 0.012 µM is 97%.
`CO[C@@H]1CN(C[C@H]2CN[C@H](C)CN2CC(=O)N2CC(C)(C)c3ncc(Cc4ccc(F)cc4)cc32)C[C@@H]1F` (mixture of isomers) [Example 41]: in experiment [1] (setting [3]), the inhibition at 0.012 µM came to 97%.
Consider `C[C@@H]1CN(CC(=O)N2CC(C)(C)c3ncc(Cc4ccc(F)cc4)cc32)[C@@H](CN2CCC[C@H]2C(F)(F)F)CN1` [Example 36, 1-{6-[(4-Fluorophenyl)methyl]-3,3-dimethyl-1H,2H,3H-pyrrolo[3,2-b]pyridin-1-yl}-2-[(2R,5R)-5-methyl-2-{[(2S)-2-(trifluoromethyl)pyrrolidin-1-yl]methyl}piperazin-1-yl]ethan-1-one], for which, in experiment [2] (setting [5]), the inhibition at 0.04 µM amounted to 38%.
Consider `C[C@@H]1CN(CC(=O)N2CC(C)(C)c3ncc(C(O)c4ccc(F)cc4F)cc32)[C@@H](CN2[C@H](C)COC[C@H]2C)CN1` (single isomer, unassigned) [Example 103, (R or S)-1-[6-[(2,4-Difluorophenyl)(hydroxy)meth-yl]-3,3-dimethyl-1H,2H,3H-pyrrolo[3,2-b]pyridin-1-yl}-2-[(2R,5R)-2-{[(3R,5R)-3,5-dimethylmorpholin-4-yl]methyl}-5-methylpiperazin-1-yl]ethan-1-one dihydrochloride], for which the inhibition at 0.04 µM in experiment [2] (setting [6]) is 69%. Further, the inhibition at 0.012 µM in experiment [1] (setting [4]) was 97%.
Turning to `CC(=O)N1CCN(C[C@H]2CN[C@H](C)CN2CC(=O)N2CC(C)(C)c3ncc(Cc4ccc(F)cc4)cc32)C(C)C1` (mixture of isomers) [Example 33, 2-[(2R,5R)-2-[(4-Acetyl-2-methylpiperazin-1-yl)methyl]-5-methylpiperazin-1-yl]-1-{6-[(4-fluorophenyl)methyl]-3,3-dimethyl-1H,2H,3H-pyrrolo[3,2-b]pyridin-1-yl}ethan-1-one dihydrochloride], the inhibition at 0.04 µM in experiment [2] (setting [5]) was found to be 38%.
For `C[C@@H]1CN(CC(=O)N2CC(C)(C)c3ncc(Cc4ccc(F)cc4)cc32)[C@@H](CN2CCC[C@H]2CO)CN1` [Example 12, 1-{6-[(4-Fluorophenyl)methyl]-3,3-dimethyl-1H,2H,3H-pyrrolo[3,2-b]pyridin-1-yl}-2-[(2R,5R)-2-{[(2S)-2-(hydroxymethyl)pyrrolidin-1-yl]methyl}-5-methylpiperazin-1-yl]ethan-1-one dihydrochloride], the inhibition at 0.012 µM in experiment [1] (setting [3]) was 85%.
Same read-out and setting: as for `C[C@@H]1CN(CC(=O)N2CC(C)(C)c3ncc(Cc4ccc(F)cc4)cc32)[C@@H](CN2CCC(F)(F)CC2)CN1` [Example 4, 2-[(2R,5R)-2-[(4,4-Difluoropiperidin-1-yl)methyl]-5-methylpiperazin-1-yl]-1-{6-[(4-fluorophenyl)methyl]-3,3-dimethyl-1H,2H,3H-pyrrolo[3,2-b]pyridin-1-yl}ethan-1-one dihydrochloride], the figure is 93%.
